Assay results published in US9486507B2, “Pro-coagulant compounds and methods of use thereof” (priority 2011, dated 2016).

Chains of the proteins cited; added tags and fusions are not shown. Residues count along the entry.
UniProt P00740, 227-461 limits assumed: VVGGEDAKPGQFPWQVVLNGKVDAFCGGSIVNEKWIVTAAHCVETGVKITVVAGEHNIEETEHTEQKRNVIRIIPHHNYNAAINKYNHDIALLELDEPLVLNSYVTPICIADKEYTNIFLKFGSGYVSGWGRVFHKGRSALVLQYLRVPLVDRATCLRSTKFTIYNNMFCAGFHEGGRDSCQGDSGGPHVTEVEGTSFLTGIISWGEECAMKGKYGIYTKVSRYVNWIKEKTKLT
UniProt P00740, 47-191 limits assumed: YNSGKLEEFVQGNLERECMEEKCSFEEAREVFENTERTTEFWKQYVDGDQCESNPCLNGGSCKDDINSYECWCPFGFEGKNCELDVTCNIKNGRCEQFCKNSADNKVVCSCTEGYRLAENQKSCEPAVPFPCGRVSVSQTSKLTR
UniProt P16294, 237-471 limits assumed: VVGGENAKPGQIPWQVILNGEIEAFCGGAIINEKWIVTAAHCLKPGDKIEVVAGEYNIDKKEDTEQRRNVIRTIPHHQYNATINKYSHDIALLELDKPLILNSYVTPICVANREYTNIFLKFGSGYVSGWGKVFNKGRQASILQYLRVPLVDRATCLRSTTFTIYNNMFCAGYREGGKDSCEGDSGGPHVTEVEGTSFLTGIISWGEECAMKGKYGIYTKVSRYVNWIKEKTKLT
UniProt P16294, 47-192 limits assumed: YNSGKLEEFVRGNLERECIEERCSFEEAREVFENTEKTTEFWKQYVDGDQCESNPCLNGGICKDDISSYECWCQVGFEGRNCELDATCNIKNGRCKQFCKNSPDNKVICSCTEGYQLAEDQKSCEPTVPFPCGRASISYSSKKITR

What was measured:
[1] = target: FIXa (Homo sapiens, UniProt P00740); test: FXa generation assay with human FIXa; type: biochemical; parameters: purchased Haematologic Technologies
[2] = Stability in mouse plasma; type: in vitro ADME
Procedure: Certain compounds of the present disclosure have limited chemical stability in plasma. […] However, compound 2 is stable in mouse plasma for at least 3 h.
Two degradation products were found for compound 1, which were identified using mass spectroscopy: • 1. […] (SEQ ID NO: 246) (m/z theoretical: 1204.50; found 1204.44) • 2. […] (SEQ ID NO: 245) (m/z theoretical: 1317.50; found 1317.60).

[3] = target: mouse FIXa (mFIXa) (Mus musculus, UniProt P16294); test: FXa generation assay with mouse FIXa; type: biochemical
Procedure: The EC50 values for compound 1 in a FXa generation assay using either mouse FIXa (mFIXa) or human FIXa (hFIXa) were measured. […] The data confirms that the peptide was selected for binding to hFIXa.

[4] = In vitro plasma stability in human FVIII deficient plasma (LC-MS); type: in vitro ADME; details: for Degradation (%): human plasma, 37° C.; for degradation in human plasma: two hours of incubation at 37° C.
Procedure: The in vitro plasma stabilities for the compounds of the present disclosure were determined using a LC-MS method. Selected compounds were spiked into 120 μL of human FVIII deficient plasma (Siemens) to give a final concentration of 50 μg/mL. An aliquot of 20 μL was taken from the sample at time 0 as control. The remaining sample was incubated at 37° C. for 2 hrs. Additional aliquots of 20 μL were taken at time points 30 min, 1 hr, 2 hrs. All samples (20 μL aliquots) were treated immediately with 100 μL of cold 100% acetonitrile, vortexed for 10 min and centrifuged at 13000 rpm for 8 min. The 100 μL of supernant was transferred to a new vial and dried by speedvac and reconstituted with 100 μL of 20% acetonitrile and 0.1% formic acid. 90 μL of reconstituted sample was injected for LC-UV-MS/MS analysis. The MS was set at triple play with full scan, zoom scan and MS/MS scans with top five ions using dynamic exclusions. 5 μL of 10 μg/mL neat peptide in water was injected as a standard control. HPLC conditions: A. 0.1% FA in water; B. 0.1% formic acid in acetonitrile, column temperature 50° C.; flow rate 0.4 mL/min; 8 min run time with fast gradient. Samples were analyzed by LC-MS, and the data was reviewed to identify any breakdown products.

[5] = Whole blood stability; type: in vitro ADME
Procedure: Compound 5 was also stable in whole blood for at least 120 min.

[6] = FXa generation assay, 10 nM hFIXa, 100 nM hFX, class symbols
[7] = FXa generation assay using human FIXa, class symbols

KLTCLASYCWLF [Compound 1]
EC50 ([1]; D-amino acid scan of compound 1, FXa generation assay): < 500 nM
EC50 [1, 6]: < 500 nM
EC50 ([1]; PL: No): 400 nM
EC50 ([1]; PL: Yes): 490 nM
EC50 ([1]; human FIXa (hFIXa), comparison with mouse FIXa): 300 nM
degradation in mouse plasma ([2]; 0.5 hours incubation, 37° C.): significant degradation
EC50 [3]: 440 nM

PRIRTVGPGSRSASGKLTCLASYCWLFWTGIA [Compound 21]
EC50 [1, 6]: < 500 nM

PRIRTVGPGSRSASGKSTCLASYCWLFWTGIA [Compound 22]
EC50 [1, 6]: 500 to 1000 nM

PRIrTVGPGSrSASGKLTCLASYCWLFWTGIA [Compound 23]
EC50 [1, 6]: < 500 nM
plasma stability relative to parent compound [4]: improved when compared to compound 21

PRIrTVGPGSrSASGKSTCLASYCWLFWTGIA [Compound 24]
EC50 [1, 6]: < 500 nM
plasma stability relative to parent compound [4]: improved compared to the stability of compound 22

RRAPGKLQCLASYCWLFWTGIA [Compound 3]
EC50 [1, 7]: < 500 nM
EC50 ([1]; PL: No): 115 nM
EC50 ([1]; PL: Yes): 125 nM
Degradation (%) ([4]; 0 min): 0.00%
Degradation (%) ([4]; 30 min): 64.72%
Degradation (%) ([4]; 60 min): 75.71%
Degradation (%) ([4]; 120 min): 85.26%
degradation in human plasma [4]: about 85%

RRAPGKLTCLASYCWLFWTGIA [Compound 4]
EC50 [1, 6]: < 500 nM

k-MeLeu-TCLASYCWLF
EC50 [1, 7]: < 500 nM
EC50 [1, 6]: < 500 nM

k-MeLeu-TCLASYCWLF [Compound 2]
EC50 ([1]; PL: No): 200 nM
EC50 ([1]; PL: Yes): 230 nM
time stable in mouse plasma ([2]; 37° C.): at least 3 h
degradation products in mouse plasma ([2]; incubation at 37° C. for 3 hours): no degradation products were detectable

rRAPGKLTCLASYCWLFWTGIA [Compound 5]
EC50 [1, 6]: < 500 nM
time stable in whole blood [5]: at least 120 min
Degradation (%) ([4]; 0 min): 0.00%
Degradation (%) ([4]; 30 min): 0.00%
Degradation (%) ([4]; 60 min): 0.00%
Degradation (%) ([4]; 120 min): 0.00%
degradation in human plasma [4]: no detectable degradation
